Data on 1 compound can be found in patent US20130005762A1, “COMBINATION OF DROLOXIFENE AND CLOPIDOGREL” (TCP Innovations Limited, priority 2009, published 2013).

Structures are written as SMILES.

This experiment can be described thus: Effect of co-administered triphenylethylenes on clopidogrel metabolism in vivo (CLP*-acetamide by LC-MS). On the set-up: species or system Sprague-Dawley rats. The settings on record: oral gavage. On the procedure:
Adult male Sprague-Dawley rats are dosed with various triphenylethylenes at different doses from 0.1 mg/kg to 10 mg/kg (spanning the likely doses such compounds would be used in man), or with vehicle only, and simultaneously dosed with 10 mg/kg clopidogrel, both by oral gavage. Blood samples are drawn through an in-dwelling jugular catheter at 0.5, 1, 2, 4, 8 and 24 hrs post-dose, and serum is prepared by conventional methods well known in the art.
The level of CLP*, the active metabolite of clopidogrel is then determined in each blood sample by LC-MS by collecting the blood samples in tubes containing the thiol alkylating agent iodeoacetamide. Iodoacetamide reacts with CLP* to generate a stable product which can be detected by LC-MS using standard methodology well known in the art. An authentic sample of the acetamide adduct of CLP* is used to quantify the level of CLP*-acetamide in the sample. […] The concentration of CLP*-acetamide adduct can therefore be assumed to be proportional to the concentration of CLP*. The pharmacokinetics of CLP*-acetamide are then compared under the different conditions, using standard pharmacokinetics models implemented with WinNonLin.

Consider `CN(C)CCOc1ccc(/C(=C(/CCCl)c2ccccc2)c2ccccc2)cc1` [Toremifene], for which the “% inhibition of CLP*-acetamide Cmax compared to vehicle control” value stood at 11% (analog 0.1 mg/kg with 10 mg/kg clopidogrel), 48% (analog 1 mg/kg with 10 mg/kg clopidogrel) and 77% (analog 10 mg/kg with 10 mg/kg clopidogrel).
